The target of assay [1] is SCD1 (Rattus norvegicus (Rat), UniProt P07308). The assay is described as follows: SCD1 enzymatic assay in rat liver microsomes (RLM). Type of assay: biochemical.
The target of assay [2] is SCD1 (Homo sapiens (Human), UniProt O00767). In words: SCD1 13C-palmitic acid assay in A431 cells. Conditions: read-out: A431 cells 13C-PA IC50. Type of assay: cell-based.

Chains of the proteins cited; added tags and fusions are not shown. Lines headed by an entry give the natural chain unless they say otherwise; changes in a name come on top.
UniProt P07308: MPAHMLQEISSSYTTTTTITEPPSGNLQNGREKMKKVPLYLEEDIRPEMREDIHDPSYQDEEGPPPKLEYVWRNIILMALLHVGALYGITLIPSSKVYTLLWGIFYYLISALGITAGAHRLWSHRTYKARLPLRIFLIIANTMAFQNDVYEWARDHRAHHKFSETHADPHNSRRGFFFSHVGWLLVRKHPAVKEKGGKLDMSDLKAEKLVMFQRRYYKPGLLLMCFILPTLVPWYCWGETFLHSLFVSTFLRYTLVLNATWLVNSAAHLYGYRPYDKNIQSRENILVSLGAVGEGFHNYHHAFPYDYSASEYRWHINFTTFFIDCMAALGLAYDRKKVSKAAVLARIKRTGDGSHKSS
UniProt O00767: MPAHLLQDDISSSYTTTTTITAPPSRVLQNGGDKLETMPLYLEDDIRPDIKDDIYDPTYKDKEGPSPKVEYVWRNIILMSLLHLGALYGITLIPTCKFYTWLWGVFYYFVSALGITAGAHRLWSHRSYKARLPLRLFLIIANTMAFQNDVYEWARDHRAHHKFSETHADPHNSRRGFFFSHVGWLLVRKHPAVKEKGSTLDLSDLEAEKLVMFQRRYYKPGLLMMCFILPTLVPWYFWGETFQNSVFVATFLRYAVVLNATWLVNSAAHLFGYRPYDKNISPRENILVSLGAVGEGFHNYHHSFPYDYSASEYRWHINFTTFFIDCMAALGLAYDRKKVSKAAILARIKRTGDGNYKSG

The source of these data is patent US9102669B2, “Substituted piperidinyl-pyridazinyl derivatives useful as SCD 1 inhibitors” (Janssen Pharmaceutica NV, priority 2011, dated 2015).

On to `Cn1cc(-c2ccc(N3CCC(n4ccc5ccc(F)cc54)CC3)nn2)cn1` [Compound #63, 6-fluoro-1-(1-(6-(1-methyl-1H-pyrazol-4-yl)pyridazin-3-yl)piperidin-4-yl)-1H-indole], for which the IC50 on SCD1 [1] came out at 23 nM.

With `Cn1cc(-c2ccc(N3CCC(N4CCc5ccc(C(F)(F)F)cc54)CC3)nn2)cn1` [Compound #60, 1-(1-(6-(1-methyl-1H-pyrazol-4-yl)pyridazin-3-yl)piperidin-4-yl)-6-(trifluoromethyl)indoline], the IC50 on SCD1 [2] came out at 42 nM.
